# According to PubChem BioAssay AID923 (National Center for Advancing Translational Sciences (NCATS), 2007):
# This is a selection; strong and weak results do not stand in their true shares. Activity calls are given as the source filed them. Calls follow the shape of the dose curve; as a rule, active = well fitted activation curve with a large enough effect; inconclusive = small, poorly fitted or top-dose-only effect; inactive = flat fitted curve, though single readings scatter.
# Experiment: qHTS Assay for Allosteric/Competitive Inhibitors of Caspase-1: Spectroscopic Profiling in AFC Spectral Region; also: 0% is about no effect
# Settings: compound fluorescence, AFC spectral region (405/520 nm); at 57.5 µM (top of the series)
row,SMILES,fluorescence increase
1,CN(CCCl)CCCl,inactive: 0.931%
2,O=[N+]([O-])C(Cl)(Cl)Cl,inactive: 3.8%
